Sequences of proteins named here, by UniProt entry; tags and fusion partners are left off. Residues count along the entry.
UniProt P05067, 672-713 limits assumed: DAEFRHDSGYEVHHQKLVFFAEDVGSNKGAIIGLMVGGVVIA

According to US10906900B2, “Compounds for using in imaging and particularly for the diagnosis of neurodegenerative diseases” (CENTRE NATIONAL DE LA RECHERCHE SCIENTIFIQUE, priority 2016, dated 2021):

Columns and labels:
[1] = target: Tau fibres (Homo sapiens (Human), UniProt P10636); test: In vitro inhibition of ThT binding and determination of Ki (fluorescence), Tau fibres; details: value used in Cheng-Prusoff equation; read-out: affinity (KdThT) for Tau fibers
Procedure: Tau protein in PBS buffer containing 1 mM DTT is assembled into fiber in the presence of one twelfth of a molar equivalent of heparin at 37° C. under stirring.
(§1) The samples are incubated for 1 h at room temperature (RT) to reach equilibrium. […] From each curve, the IC50 value is measured using the following equation: Y=min+(max−min)/1+([…])^slope

[2] = target: Aβ1-42 fibres (Homo sapiens, UniProt P05067); test: In vitro inhibition of ThT binding and determination of Ki (fluorescence), Aβ1-42 fibres; details: value used in Cheng-Prusoff equation; read-out: affinity (KdThT) for Aβ1-42 fibers
Procedure: To obtain fiber assembly, α-syn is incubated in Tris-HCl 50 mM pH7.5, KCl 150 mM at 37° C. under continuous agitation during 4 days. The lyophilized Aβ1-42 was dissolved in 1,1,1,3,3,3-Hexafluoro-2-propanol (HFIP) at 0.2 mg/mL and incubated for 24 h at 37° C. to obtain the complete solubilization. The HFIP is evaporated under nitrogen stream to obtain a dry product. To start the fiber assembly, the dry peptide is resuspended in PBS pH7.4, 10% (v/v) DMSO and incubated at 37° C. for 3 days without agitation.
Protein fibers are systematically observed by electron microscopy (Jeol 1400). The images are recorded with a CCD camera (Gatan Orius). Finally, the percentage of α-syn and Aβ1-42 aggregated into fibers is checked on the pellet after centrifugation at 40000×g for 20 min and determination of the concentration of soluble protein/peptide remaining in the supernatant.
as §1

`Cc1ccc2c(c1)sc(-c1ccc(N(C)C)cc1)[n+]2C` [ThT, thioflavin T, reference compound] was tested, and the Kd [1] was 0.35 µM and the Kd [2] was 0.5 µM.
